Laboratory results taken from BindingDB's records for 10206545.

Chains of the proteins cited; added tags and fusions are not shown.
UniProt P41143, whole entry: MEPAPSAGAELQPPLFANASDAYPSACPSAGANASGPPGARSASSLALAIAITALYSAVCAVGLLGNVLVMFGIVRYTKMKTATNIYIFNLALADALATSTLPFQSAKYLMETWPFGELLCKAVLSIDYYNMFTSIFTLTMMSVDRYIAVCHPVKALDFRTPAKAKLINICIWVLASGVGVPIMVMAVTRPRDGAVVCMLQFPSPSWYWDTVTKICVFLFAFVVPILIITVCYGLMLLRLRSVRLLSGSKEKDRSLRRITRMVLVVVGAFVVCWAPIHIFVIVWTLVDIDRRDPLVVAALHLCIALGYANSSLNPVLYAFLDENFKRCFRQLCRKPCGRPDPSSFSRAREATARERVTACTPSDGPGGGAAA

Target: Delta-type opioid receptor (Homo sapiens, UniProt P41143)
Assay: ASSAY_NAME: ChEBML_217729 DESCRIPTION: Binding affinity towards delta opioid receptor in guinea pig brain membranes using [3H]- CI-DPDPE as radioligand

SMILES: CC1C2CC34CCC2(OC1(C)C)C1Oc2c(O)ccc5c2C13CCN(C)C4C5 (stereo unspecified)
- Ki: 4.4 nM

SMILES: CN1CC[C@]23c4c5ccc(O)c4O[C@H]2[C@@]24CC[C@@]3(C[C@@H]2C(C)(C)C(C)(C)O4)C1C5
- Ki: 4.4 nM

SMILES: CN1CC[C@]23c4c5ccc(O)c4O[C@H]2[C@@]24CC[C@@]3(C[C@H]2C(C)(C)C(C)(C)O4)C1C5
- Ki: 6.1 nM

SMILES: C[C@@H]1CO[C@@]23CCC4(C[C@H]12)C1Cc2ccc(O)c5c2C4(CCN1CC1CC1)[C@H]3O5
- Ki: 1.2 nM

SMILES: C[C@H]1CO[C@@]23CCC4(C[C@@H]12)[C@H]1Cc2ccc(O)c5c2C4(CCN1CC1CC1)[C@H]3O5
- Ki: 0.7 nM

SMILES: CC1(C)OC23CCC4(CC2C1(C)C)C1Cc2ccc(O)c5c2C4(CCN1CC1CC1)C3O5 (stereo unspecified)
- Ki: 0.8 nM
